# Measurements reported in publication PMC9719539, “Single-molecule characterization of subtype-specific β1 integrin mechanics” (Nature Communications, 2022).
# Chains of the proteins cited; added tags and fusions are not shown. Residues count along the entry.
# UniProt P06756, 31-1048, chain 1 of 2: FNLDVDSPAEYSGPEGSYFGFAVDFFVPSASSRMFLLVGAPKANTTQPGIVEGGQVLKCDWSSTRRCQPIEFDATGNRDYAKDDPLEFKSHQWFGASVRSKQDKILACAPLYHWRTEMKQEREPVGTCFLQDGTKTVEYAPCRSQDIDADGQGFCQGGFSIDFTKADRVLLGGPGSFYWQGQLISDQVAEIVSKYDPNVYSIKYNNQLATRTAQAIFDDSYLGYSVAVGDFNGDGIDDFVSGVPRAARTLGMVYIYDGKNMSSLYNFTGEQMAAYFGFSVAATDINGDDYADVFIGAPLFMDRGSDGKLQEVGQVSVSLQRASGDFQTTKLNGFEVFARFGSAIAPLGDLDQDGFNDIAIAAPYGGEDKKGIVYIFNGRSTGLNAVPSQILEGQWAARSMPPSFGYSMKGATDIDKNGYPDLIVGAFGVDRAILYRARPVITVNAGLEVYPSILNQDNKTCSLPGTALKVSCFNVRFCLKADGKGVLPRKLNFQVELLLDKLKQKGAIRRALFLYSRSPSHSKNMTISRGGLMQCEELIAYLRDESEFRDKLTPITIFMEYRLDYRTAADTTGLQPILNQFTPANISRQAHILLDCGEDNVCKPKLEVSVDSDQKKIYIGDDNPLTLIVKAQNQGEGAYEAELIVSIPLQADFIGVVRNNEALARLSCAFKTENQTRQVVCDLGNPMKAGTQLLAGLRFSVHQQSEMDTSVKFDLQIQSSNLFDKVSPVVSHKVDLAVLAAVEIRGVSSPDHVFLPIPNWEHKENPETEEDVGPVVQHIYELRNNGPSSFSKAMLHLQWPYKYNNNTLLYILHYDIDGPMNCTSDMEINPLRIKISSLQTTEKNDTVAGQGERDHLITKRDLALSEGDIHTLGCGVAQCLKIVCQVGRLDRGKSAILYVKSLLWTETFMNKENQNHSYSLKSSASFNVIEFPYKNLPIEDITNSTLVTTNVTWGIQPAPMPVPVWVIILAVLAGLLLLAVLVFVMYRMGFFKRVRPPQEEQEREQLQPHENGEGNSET
# UniProt P08648, 42-1049, chain 1 of 2: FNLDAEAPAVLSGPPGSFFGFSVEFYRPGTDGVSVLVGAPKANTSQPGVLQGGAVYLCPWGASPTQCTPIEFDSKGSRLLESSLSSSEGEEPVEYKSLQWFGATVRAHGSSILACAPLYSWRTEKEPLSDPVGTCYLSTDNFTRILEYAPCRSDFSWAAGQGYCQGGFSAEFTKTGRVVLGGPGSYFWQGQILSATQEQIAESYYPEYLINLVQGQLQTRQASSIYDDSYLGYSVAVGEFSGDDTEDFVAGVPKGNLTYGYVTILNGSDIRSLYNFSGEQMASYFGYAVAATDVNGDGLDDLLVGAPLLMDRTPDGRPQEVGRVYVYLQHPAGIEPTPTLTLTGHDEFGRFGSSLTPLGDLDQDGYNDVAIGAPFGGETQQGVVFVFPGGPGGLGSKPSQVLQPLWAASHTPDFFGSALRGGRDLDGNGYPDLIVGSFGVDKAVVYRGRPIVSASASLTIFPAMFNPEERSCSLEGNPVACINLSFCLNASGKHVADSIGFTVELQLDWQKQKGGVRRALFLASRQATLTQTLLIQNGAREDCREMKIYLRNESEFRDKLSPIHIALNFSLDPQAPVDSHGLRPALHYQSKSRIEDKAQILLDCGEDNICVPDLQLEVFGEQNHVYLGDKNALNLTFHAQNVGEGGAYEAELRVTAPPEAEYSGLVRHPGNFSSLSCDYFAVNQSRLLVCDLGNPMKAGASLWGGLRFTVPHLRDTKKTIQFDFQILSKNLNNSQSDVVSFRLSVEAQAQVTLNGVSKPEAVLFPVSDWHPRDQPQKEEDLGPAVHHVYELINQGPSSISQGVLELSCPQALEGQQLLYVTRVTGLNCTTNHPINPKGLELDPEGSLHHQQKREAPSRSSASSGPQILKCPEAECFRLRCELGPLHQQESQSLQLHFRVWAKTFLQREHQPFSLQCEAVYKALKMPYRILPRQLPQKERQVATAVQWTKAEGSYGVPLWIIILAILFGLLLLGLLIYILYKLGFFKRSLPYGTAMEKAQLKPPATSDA
# Legend:
# [1] = biological target: integrin αVβ1, intact, on K562 αVβ1 stable transfectants (human) (UniProt P06756); assay: flow cytometry on cells; intact integrins on K562 cells in L15 medium with 1% BSA, without Mn2+, no washing; titrator's binding read as enhancement of binding of fluorescent 9EG7 Fab (10 nM); EC50 of a three-parameter dose-response fit taken as Kd
# [2] = biological target: integrin α5β1, intact, on wild type K562 cells (human (endogenous in K562)) (UniProt P08648); assay: flow cytometry on cells
substance,measurement,setting,value
Fn3 9-10 (macromolecule fragment of fibronectin) (domain or fragment),Kd,[1],10 µM
same,Kd,[2],0.93 µM
